# Values of other authors in paper PMC4139653.
# The chains behind the UniProt entries cited, without tags or fusion partners. Residues count along the entry.
# UniProt P31994, 43-217: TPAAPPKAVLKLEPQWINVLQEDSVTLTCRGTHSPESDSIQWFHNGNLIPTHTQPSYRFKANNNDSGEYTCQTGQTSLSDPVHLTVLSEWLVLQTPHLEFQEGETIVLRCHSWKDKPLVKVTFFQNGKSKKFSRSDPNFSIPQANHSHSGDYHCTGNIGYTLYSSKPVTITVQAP
# Biological target: FcγRIIb (Homo sapiens) (UniProt P31994)
substance,measurement,value
Amyloid beta (from UniProt P05067),Kd,0.0567 µM
